From US20260382583A1, “LPA1 ANTAGONISTS FOR TREATING INTERSTITIAL LUNG DISEASE” (published 2026)

Columns and labels:
patients with PPF = details: cited from earlier work
patients with IPF = details: cited from earlier work; for Benefit on FVC vs PBO: Phase 3 IPF; for Progression-free survival: patients with IPF
[1] = Example 7: effect of single and multiple ascending doses of Compound B on systolic blood pressure; details: single ascending dose
From the text: The compound sodium (R)-1-(4′-(3-methyl-4-(((1-phenylethoxy)carbonyl)amino)isoxazol-5-yl)-[1,1′-biphenyl]-4-yl)cyclopropane-1-carboxylate (hereafter referred as to “Compound B”) is an LPA1 antagonist having the structure shown below:
and is described in U.S. Patent Application Publication No. 2010/0311799. Single ascending dose of Compound B caused a drop in blood pressure starting ~1.25 hr post dose (FIG. 5).

SMILES	Annual rate of decline in FVC vs placebo (patients with PPF; 52 weeks)	Progression of lung fibrosis vs placebo (patients with PPF; 52 weeks)	Tolerability (patients with PPF)	Benefit on FVC vs PBO (patients with IPF; 52 weeks)	Progression-free survival (patients with IPF)	Benefit on FVC vs PBO (patients with IPF; 72 weeks)	Effect on blood pressure [1]
COC(=O)c1ccc2c(c1)NC(=O)/C2=C(\Nc1ccc(N(C)C(=O)CN2CCN(C)CC2)cc1)c1ccccc1	lower annual rate of decline in forced vital capacity	slower progression of lung fibrosis than those who received placebo	many patients are unable to tolerate nintedanib due to gastrointestinal side effects	demonstrated benefits on FVC	modest effects on progression-free survival	–	–
Cc1ccc(=O)n(-c2ccccc2)c1	–	–	–	–	modest effects on progression-free survival	demonstrated benefits on FVC	–
Cc1noc(-c2ccc(-c3ccc(C4(C(=O)O)CC4)cc3)cc2)c1NC(=O)O[C@H](C)c1ccccc1	–	–	–	–	–	–	drop in blood pressure

Where two headings read alike, the source gives them in different places.
